Test results published in US20240254082A1, “Substituted Isoindoline-1, 3-diketone PDE4 Inhibitor and Pharmaceutical Application Thereof” (SUZHOU INTRAGRAND PHARMA CO., LTD, priority 2021, published 2024).

The chains behind the UniProt entries cited, without tags or fusion partners. Where a name states a change or a piece, a line headed by the entry shows the natural chain unless it says otherwise.
UniProt Q14123, whole entry, looked up: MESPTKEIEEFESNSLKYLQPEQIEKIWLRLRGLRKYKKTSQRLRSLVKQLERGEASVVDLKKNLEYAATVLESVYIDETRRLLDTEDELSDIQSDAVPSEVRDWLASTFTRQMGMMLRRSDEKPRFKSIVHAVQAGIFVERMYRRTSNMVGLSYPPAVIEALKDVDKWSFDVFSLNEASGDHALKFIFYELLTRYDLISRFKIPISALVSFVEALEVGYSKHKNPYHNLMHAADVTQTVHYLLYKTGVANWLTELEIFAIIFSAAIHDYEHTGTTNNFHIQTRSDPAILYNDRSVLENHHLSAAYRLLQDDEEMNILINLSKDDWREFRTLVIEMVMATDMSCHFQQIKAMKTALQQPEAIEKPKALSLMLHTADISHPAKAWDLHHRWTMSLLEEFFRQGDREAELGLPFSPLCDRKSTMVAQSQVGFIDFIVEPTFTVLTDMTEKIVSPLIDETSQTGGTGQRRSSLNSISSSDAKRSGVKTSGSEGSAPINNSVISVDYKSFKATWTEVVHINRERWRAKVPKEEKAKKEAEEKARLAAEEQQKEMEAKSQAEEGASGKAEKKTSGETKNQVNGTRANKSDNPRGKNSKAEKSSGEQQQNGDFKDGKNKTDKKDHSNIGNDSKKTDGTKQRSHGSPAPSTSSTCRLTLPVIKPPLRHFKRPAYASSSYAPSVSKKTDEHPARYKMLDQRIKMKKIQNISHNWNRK
UniProt O00408, whole entry, looked up: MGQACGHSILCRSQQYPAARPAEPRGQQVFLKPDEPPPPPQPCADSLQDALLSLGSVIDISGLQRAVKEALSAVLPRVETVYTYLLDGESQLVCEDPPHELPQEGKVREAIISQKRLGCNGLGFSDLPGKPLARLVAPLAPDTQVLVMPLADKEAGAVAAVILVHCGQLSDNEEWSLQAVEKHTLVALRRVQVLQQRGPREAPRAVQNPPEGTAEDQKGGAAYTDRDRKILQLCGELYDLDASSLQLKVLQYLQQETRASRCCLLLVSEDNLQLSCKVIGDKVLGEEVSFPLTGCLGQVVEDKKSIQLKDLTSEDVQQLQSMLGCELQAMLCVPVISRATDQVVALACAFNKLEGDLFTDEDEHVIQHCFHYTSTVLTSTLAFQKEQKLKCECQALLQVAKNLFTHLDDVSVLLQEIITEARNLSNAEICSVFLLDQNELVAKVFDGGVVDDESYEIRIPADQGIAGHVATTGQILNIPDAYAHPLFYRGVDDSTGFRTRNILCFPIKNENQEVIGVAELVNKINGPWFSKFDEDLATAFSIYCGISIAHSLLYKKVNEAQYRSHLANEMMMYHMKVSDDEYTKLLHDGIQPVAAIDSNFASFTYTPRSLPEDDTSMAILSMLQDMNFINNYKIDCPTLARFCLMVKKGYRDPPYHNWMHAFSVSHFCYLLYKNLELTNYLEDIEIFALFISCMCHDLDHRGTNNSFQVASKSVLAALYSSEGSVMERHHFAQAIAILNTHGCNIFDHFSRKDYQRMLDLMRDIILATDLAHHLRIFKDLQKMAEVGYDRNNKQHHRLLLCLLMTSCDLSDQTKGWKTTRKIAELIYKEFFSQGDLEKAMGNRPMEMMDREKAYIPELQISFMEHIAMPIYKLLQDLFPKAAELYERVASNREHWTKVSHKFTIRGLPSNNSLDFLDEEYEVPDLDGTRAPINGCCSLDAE
UniProt Q13370: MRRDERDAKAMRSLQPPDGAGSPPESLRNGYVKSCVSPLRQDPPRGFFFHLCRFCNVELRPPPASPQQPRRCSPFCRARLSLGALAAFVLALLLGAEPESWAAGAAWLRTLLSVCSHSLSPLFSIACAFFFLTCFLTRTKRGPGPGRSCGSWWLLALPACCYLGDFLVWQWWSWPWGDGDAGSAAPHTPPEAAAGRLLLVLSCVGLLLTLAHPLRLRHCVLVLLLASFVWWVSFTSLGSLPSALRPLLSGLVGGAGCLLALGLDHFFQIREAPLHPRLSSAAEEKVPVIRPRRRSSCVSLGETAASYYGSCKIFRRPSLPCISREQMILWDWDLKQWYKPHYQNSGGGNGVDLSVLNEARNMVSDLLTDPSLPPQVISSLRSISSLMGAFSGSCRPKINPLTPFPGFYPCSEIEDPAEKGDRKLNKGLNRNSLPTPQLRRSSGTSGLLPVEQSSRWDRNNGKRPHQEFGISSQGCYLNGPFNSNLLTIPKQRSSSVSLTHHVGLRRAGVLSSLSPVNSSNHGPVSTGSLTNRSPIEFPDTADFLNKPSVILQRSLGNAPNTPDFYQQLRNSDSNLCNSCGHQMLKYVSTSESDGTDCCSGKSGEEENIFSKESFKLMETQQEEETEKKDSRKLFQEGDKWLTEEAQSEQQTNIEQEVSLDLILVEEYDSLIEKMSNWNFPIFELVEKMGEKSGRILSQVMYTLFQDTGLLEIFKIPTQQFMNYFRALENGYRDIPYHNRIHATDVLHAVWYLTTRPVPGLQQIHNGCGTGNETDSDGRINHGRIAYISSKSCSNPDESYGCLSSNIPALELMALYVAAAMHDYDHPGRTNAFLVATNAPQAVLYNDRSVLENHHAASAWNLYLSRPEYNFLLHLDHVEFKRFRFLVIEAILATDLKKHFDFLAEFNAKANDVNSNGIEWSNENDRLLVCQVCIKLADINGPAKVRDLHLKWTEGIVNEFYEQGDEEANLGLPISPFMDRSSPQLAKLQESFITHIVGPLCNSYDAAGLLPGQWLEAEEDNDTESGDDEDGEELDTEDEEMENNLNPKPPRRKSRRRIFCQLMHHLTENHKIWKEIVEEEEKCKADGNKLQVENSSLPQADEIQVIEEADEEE
UniProt Q13946: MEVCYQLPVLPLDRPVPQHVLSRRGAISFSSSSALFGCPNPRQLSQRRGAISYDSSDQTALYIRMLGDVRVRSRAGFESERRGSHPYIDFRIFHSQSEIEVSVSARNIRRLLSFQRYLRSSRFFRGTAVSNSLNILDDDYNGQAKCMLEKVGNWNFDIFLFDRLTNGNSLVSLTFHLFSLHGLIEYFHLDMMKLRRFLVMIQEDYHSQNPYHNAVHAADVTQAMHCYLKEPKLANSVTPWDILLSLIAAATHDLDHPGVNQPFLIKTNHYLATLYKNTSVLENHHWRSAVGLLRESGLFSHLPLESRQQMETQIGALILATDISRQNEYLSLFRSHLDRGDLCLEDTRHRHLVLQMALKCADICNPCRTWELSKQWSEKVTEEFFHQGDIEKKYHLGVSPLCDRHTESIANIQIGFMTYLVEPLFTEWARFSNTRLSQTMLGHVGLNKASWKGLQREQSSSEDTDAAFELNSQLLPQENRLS
UniProt Q9Y233: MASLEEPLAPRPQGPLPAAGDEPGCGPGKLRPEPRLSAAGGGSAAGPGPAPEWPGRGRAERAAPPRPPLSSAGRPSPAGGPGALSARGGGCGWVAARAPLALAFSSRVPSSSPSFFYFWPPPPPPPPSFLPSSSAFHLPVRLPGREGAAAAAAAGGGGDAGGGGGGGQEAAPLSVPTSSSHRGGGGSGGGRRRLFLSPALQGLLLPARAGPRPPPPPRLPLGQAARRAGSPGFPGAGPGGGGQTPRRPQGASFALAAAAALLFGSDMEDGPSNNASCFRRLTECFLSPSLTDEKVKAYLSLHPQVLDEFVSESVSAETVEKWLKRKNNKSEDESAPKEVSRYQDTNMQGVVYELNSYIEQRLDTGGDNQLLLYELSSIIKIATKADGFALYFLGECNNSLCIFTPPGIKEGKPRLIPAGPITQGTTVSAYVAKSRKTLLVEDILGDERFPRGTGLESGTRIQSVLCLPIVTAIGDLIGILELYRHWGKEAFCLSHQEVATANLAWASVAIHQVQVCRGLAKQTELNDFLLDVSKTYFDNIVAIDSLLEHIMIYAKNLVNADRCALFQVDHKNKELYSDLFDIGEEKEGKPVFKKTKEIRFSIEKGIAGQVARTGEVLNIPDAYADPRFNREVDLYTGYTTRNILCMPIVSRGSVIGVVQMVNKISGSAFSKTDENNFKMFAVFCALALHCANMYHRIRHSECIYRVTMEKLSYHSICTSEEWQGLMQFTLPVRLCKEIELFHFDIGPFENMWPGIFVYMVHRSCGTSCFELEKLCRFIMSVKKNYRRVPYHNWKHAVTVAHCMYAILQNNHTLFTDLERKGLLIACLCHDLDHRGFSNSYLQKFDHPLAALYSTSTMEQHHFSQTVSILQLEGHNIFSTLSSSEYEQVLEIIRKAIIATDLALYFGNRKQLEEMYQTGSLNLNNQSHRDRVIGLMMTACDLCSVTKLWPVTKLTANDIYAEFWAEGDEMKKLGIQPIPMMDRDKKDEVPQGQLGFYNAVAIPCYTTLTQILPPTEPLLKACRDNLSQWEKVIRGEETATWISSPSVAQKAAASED

Legend:
Format in all cases: biochemical
PDE1C = PDE1C (Homo sapiens, UniProt Q14123); assay: Selective inhibitory activity assay, PDE1C
Protocol: (§1) 7. Selective inhibitory activity assay for PDE1, 2, 3, 5, 7, 10 and 11 enzymes
(§2) The selective specificity of compounds for PDE4 was assessed by assaying single concentrations of the compounds. For example, PDE1a enzyme, PDElc enzyme, PDE2a enzyme, PDE3a enzyme, PDE3b enzyme, PDE5a1 enzyme, PDE7a enzyme, PDE7b enzyme, PDE10a1 enzyme and PDE11a4 enzyme were tested. The selective inhibitory effects of different compounds on the enzymatic activities of PDEIC, PDE2A, PDE3B, PDE5A1, PDE7A, and PDE10A1 at concentrations of 10 μM and 1 μM, respectively, are shown in the table below: […]

PDE2A = PDE2A (Homo sapiens, UniProt O00408); assay: Selective inhibitory activity assay, PDE2A
Protocol: as §1, §2

PDE3B = PDE3B (Homo sapiens, UniProt Q13370); assay: Selective inhibitory activity assay, PDE3B
Protocol: as §1, §2

PDE5A1 = PDE5A1 (Homo sapiens, UniProt O76074); assay: Selective inhibitory activity assay, PDE5A1
Protocol: as §1, §2

PDE7A = PDE7A (Homo sapiens, UniProt Q13946); assay: Selective inhibitory activity assay, PDE7A
Protocol: as §1, §2

PDE10A1 = PDE10A1 (Homo sapiens, UniProt Q9Y233); assay: Selective inhibitory activity assay, PDE10A1
Protocol: as §1, §2

## CCCCCc1ccc(NC(=O)C2CC2)c2c1C(=O)N([C@H](CS(C)(=O)=O)c1ccc(OC)c(OCC)c1)C2=O [Example 6, (S)-2-[1-(3-ethoxy-4-methoxyphenyl)-2-alkylsulfonylethyl]-4-cyclopropanamido-7-pentyl isoindoline-1,3-diketone]
PDE1C; 1 μM
  Inhibition rate (%) of PDE1C: 0%
PDE1C; 10 μM
  Inhibition rate (%) of PDE1C: 17.97%
PDE2A; 1 μM
  Inhibition rate (%) of PDE2A: 0%
PDE2A; 10 μM
  Inhibition rate (%) of PDE2A: 3.41%
PDE3B; 1 μM
  Inhibition rate (%) of PDE3B: 0.94%
PDE3B; 10 μM
  Inhibition rate (%) of PDE3B: −0.44%
PDE5A1; 1 μM
  Inhibition rate (%) of PDE5A1: 34.22%
PDE5A1; 10 μM
  Inhibition rate (%) of PDE5A1: 34.00%
PDE7A; 1 μM
  Inhibition rate (%) of PDE7A: 0%
PDE7A; 10 μM
  Inhibition rate (%) of PDE7A: 13.83%
PDE10A1; 1 μM
  Inhibition rate (%) of PDE10A1: 4.84%
PDE10A1; 10 μM
  Inhibition rate (%) of PDE10A1: −16.18%
